Values quoted from earlier work in patent US20250101062A1, “ANTIMICROBIAL PEPTIDES” (Board of Regents of the University of Nebraska, priority 2023, published 2025).

System: E. coli
Conditions: data from the antimicrobial peptide database; cited from earlier work

ACDTATCVTHRLAGLLSRSGGVVKNNFVPTNVGSKAF [Calcitonin gene-related peptide]
MIC against E. coli: 2.1 µg/mL
